Source: PMC7701984 (Journal of medicinal chemistry, 2019)

Columns and labels:
[1] = system: Human PBMCs containing naïve Vγ9Vδ2 T cells; test: IFN-γ production of PBMCs by ELISA; assay type: cell-based; conditions: PBMC, 48 h, read-out: IFN-γ EC50 (μM) with 95% CI
Vγ9Vδ2 T cells = conditions: read-out: Proliferation EC50 (μM) with 95% CI; footnote a; ref Hsiao 2014; cited from earlier work

Row | Compound | EC50 [1] | EC50 (Vγ9Vδ2 T cells)
1 | CC(C)=CCOP(=O)(O)OP(=O)(O)O [Compound 2, dimethylallyl diphosphate] | 1.5 µM | 
2 | C=C(C)CCOP(=O)(O)OP(=O)(O)O [Compound 3, isopentenyl diphosphate] | 71 µM | 36 µM
